A short description of the data set: method code SF-FL/RC, from DOI: 10.1007/bf00499868, PMID: 43479.

Experimental findings from the SangsterLogP compilation are described below.

A word on the logP: it is a log measure of how a compound divides between an organic and an aqueous phase. In turn, `CNC[C@H](O)c1cccc(O)c1` had a logP of -0.31.
